A short description of the assay: Adjunct efficacy test (reactivator with 2-PAM) against GD in mice. The settings on record: 3a plus 2-PAM, Soman.

Consider `C[n+]1cccc(O)c1C=NNC(N)=O.[Cl-]` [Compound 3a, 2-[[(Aminocarbonyl)hydrazono]methyl]-3-hydroxy-1-methyl pyridinium chloride], for which the “efficacy compared with HI-6” value is recorded as “more effective than HI-6”.
